This data set in a line: In vitro dissolution test, USP apparatus 2 (paddle). In kind it is physicochemical. The following applies: 37° C., 50 rpm. The procedure: Complexes that corresponded to 150 mg of ibuprofen were subjected to dissolution in a USP (United States Pharmacopoeia) dissolution apparatus 2 (Paddle-type) with several kinds of solutions (900 ml). This dissolution test was conducted at 37° C., and a paddle rotation speed of 50 rpm was maintained. A UV detector was used to measure the absorbance of dissolution liquids at regular intervals of up to 120 minutes.
The complexes containing 150 mg of ibuprofen were subjected to dissolution testing using a USP dissolution apparatus 2 (Paddle-type) with several kinds of solutions (900 ml). This dissolution test was conducted at 37° C., at a paddle rotation speed of 50 rpm. A UV detector was used to measure the absorbance of dissolution liquids at regular intervals up to 120 minutes.

As for “Ibuprofen-lysine Salt [Ibuprofen-lysine salt complex]”, the “solubility in distilled water” value is “high”.

The record behind these values is patent publication US20040029777A1, “Pharmaceutical preparation for taste masking” (TAISHO PHARMACEUTICAL CO., LTD., priority 2002, published 2004).
